From PubChem BioAssay AID1159536 (DiRusso Lab, Biochemistry Department, University of Nebraska, 2015) come the findings set out here.

Each structure is given as a SMILES string. Inconclusive results are not listed.

This assay deals with Chlamydomonas reinhardtii, Nile Red lipid fluorescence, 72 h. The assay is described as follows: compounds raising TAG storage in Chlamydomonas – qHTS, Chlamydomonas reinhardtii, dose response (AID 1159536).

With `Fc1ccccc1NC1CCN(Cc2ccccc2)CC1`, the 50% effective concentration (EC50) is 9.97 µM.
